Reference: US20230021880A1, “Cladribine regimen for treating progressive forms of Multiple Sclerosis” (Merck Patent GmbH, priority 2017, published 2023)

Legend:
lymphocytes = assay: Lymphocyte counts across clinical studies (pharmacodynamic effects)
mice = mice (also following treatment of the males only)
[1] = Population pharmacokinetic analysis (pooled data from various studies); details: population kinetic analysis

With `Nc1nc(Cl)nc2c1ncn2[C@H]1C[C@H](O)[C@@H](CO)O1` [Cladribine, 2-chloro-2′deoxyadenosine] the “time after the first dose in each year at which the largest proportion of patients with grade 3 or 4 lymphopenia was seen” value (lymphocytes; across studies) was 2 months, the “patients whose lymphocyte counts returned to the normal range by week 144 from the first dose” value (lymphocytes; cumulative dose 3.5 mg/kg) was “more than 75%” and the teratogenicity (mice) was “teratogenic”. The “effect of age (range 18 to 65 years) or gender on pharmacokinetics” value [1] was “did not show any effect”.
